# Legend:
# Sequences of proteins named here, by UniProt entry; tags and fusion partners are left off. A change or cut given only in a name is not applied to a line headed by its entry.
# UniProt P41145: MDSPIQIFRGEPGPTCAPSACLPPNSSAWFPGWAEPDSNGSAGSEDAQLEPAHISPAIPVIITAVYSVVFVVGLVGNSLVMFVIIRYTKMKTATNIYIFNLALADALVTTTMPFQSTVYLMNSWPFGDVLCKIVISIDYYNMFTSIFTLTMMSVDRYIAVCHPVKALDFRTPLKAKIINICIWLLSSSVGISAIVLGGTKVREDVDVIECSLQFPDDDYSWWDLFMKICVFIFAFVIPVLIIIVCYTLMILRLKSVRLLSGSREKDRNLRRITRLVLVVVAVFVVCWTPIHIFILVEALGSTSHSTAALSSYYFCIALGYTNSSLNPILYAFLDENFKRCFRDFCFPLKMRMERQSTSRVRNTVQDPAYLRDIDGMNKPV
# UniProt P41143, whole entry, looked up: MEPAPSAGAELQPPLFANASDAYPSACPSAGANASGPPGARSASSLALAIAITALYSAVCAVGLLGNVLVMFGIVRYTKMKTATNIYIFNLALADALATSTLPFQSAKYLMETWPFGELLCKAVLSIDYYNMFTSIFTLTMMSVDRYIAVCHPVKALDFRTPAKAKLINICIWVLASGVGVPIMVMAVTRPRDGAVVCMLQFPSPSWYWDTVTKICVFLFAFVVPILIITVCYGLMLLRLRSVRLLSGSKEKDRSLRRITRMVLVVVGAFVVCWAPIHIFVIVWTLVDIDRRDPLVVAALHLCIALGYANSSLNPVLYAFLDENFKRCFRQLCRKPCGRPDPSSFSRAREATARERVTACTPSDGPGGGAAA
# UniProt P35372, whole entry, looked up: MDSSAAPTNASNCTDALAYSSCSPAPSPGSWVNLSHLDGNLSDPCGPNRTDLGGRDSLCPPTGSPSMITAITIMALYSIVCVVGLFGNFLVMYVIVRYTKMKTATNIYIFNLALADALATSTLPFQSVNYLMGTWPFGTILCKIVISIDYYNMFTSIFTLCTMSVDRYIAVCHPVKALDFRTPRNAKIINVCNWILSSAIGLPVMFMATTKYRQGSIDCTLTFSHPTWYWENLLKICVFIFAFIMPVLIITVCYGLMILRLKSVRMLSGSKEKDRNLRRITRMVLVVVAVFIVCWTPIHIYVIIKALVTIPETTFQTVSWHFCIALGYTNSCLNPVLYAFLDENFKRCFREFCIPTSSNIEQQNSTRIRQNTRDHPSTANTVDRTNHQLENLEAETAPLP
# UniProt P97266, whole entry, looked up: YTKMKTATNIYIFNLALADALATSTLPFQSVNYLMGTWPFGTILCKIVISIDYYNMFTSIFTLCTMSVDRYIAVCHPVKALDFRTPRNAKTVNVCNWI
# [1] = biological target: T1, Opioid receptors; mu/kappa/delta (Homo sapiens) (UniProt P41145+P41143+P35372); test: Compound was evaluated for the percent recovery of 0.5 nM of [3H]- bremazocine binding to of total opioid receptor in washed guinea pig brain membranes at 20 (nM) concentration of the compound; conditions: Cavia porcellus, Membrane
# [2] = biological target: Delta-type opioid receptor (Homo sapiens) (UniProt P41143); test: Compound was evaluated for the percent recovery of 1.0 nM of [3H]- DPDPE binding to Opioid receptor delta 1 in un washed guinea pig brain membranes at 4(nM) concentration; conditions: Cavia porcellus, Membrane
# [3] = biological target: Delta-type opioid receptor (Homo sapiens) (UniProt P41143); test: Compound was evaluated for the percent recovery of 1.0 nM of [3H]- DPDPE binding to Opioid receptor delta 1 in washed guinea pig brain membranes at 4(nM) concentration; conditions: Cavia porcellus, Membrane
# [4] = biological target: Delta-type opioid receptor (Homo sapiens) (UniProt P41143); test: Compound was evaluated for the percent recovery of 1.0 nM of [3H]- DPDPE binding to Opioid receptor delta 1 in guinea pig brain membranes at 4(nM) concentration protection by 1 uM Naloxone.; conditions: Cavia porcellus, Membrane
# [5] = biological target: T1, Opioid receptors; mu/kappa/delta (Homo sapiens); test: Compound was evaluated for the percent recovery of 0.5 nM of [3H]- bremazocine binding to total opioid receptor in guinea pig brain membranes at 20 (nM) concentration protection by 1 uM Naloxone.; conditions: Cavia porcellus, Membrane
# [6] = biological target: Mu-type opioid receptor (Cavia porcellus) (UniProt P97266); test: Compound was evaluated for the percent recovery of 1.0 nM of [3H]- DAGO binding to opioid receptor mu in un washed guinea pig brain membranes at 10 (nM) concentration; conditions: Membrane
# [7] = biological target: T1, Opioid receptors; mu/kappa/delta (Homo sapiens); test: Compound was evaluated for the percent recovery of 0.5 nM of [3H]- bremazocine binding to of total opioid receptor in unwashed guinea pig brain membranes at 20(nM) concentration of the compound; conditions: Cavia porcellus, Membrane
# [8] = biological target: Mu-type opioid receptor (Cavia porcellus) (UniProt P97266); test: Compound was evaluated for the percent recovery of 1.0 nM of [3H]- DAGO binding to mu opioid receptor in washed guinea pig brain membranes at 10(nM) concentration; conditions: Membrane
smiles,measurement,setting,value
C=C(CO[C@@H]1CC[C@@]2(O)[C@H]3Cc4ccc(O)c5c4[C@@]2(CCN3CC2CC2)[C@H]1O5)C(=O)OC,% recovery,[1],60
same,% recovery,[2],5
same,% recovery,[3],42
same,% recovery,[4],97
same,% recovery,[5],90
same,% recovery,[6],21
same,% recovery,[7],35
same,% recovery,[8],59

# — ChEMBL document CHEMBL1126090, “Electrophilic opioid ligands. Oxygen tethered alpha-methylene-gamma-lactone, acrylate, isothiocyanate, and epoxide derivatives of 6 beta-naltrexol” (J Med Chem, 1992)
